Assay results published in patent publication US20250351832A1, “PHYTOCHEMICALS AS BIOPESTICIDES AND BIOSTIMULANTS” (KAY BEE BIO ORGANICS PVT. LTD., priority 2024, published 2025).

What follows are molecules tested on Xanthomonas axanopodis pv. punicae. Settings: […]; 7th day after spray; dose 1 ml/gm/lit.
For `Cc1ccc(C(C)C)cc1O` [Carvacrol], the “7th day after spray (disease)” value was 11.50. `CC1CCC(C(C)C)C(O)C1` (stereo not drawn) [Menthol] was tested, and the “7th day after spray (disease)” value was 7.00. With `C=CCc1ccc(OC)cc1` [Methyl chavicol] the “7th day after spray (disease)” value was 10.25. With `Cc1ccc(C(C)C)cc1` [p-Cymene] the “7th day after spray (disease)” value was 7.25. `CCCCCCCCCC(C)=O` [Embodiment 2-undecanone, 2-undecanone] was tested, and the “7th day after spray (disease)” value was 8.75. `CC(C)=CCCC(C)=CC=O` [Citral] was tested, and the “7th day after spray (disease)” value was 10.50. In the case of `O=c1oc2c(O)c(O)cc3c(=O)oc4c(O)c(O)cc1c4c23` [Ellagic acid], the “7th day after spray (disease)” value was 12.00. With `C=C(C)[C@H]1CC=C(C)CC1` [D-limonene] the “7th day after spray (disease)” value was 10.75. `O=C(/C=C/C=C/c1ccc2c(c1)OCO2)N1CCCCC1` [Piperine] was tested, and the “7th day after spray (disease)” value was 13.00. For `CC12CCC(CC1=O)C2(C)C` (stereo not drawn) [Camphor], the “7th day after spray (disease)” value was 11.25. With `CC1=CCC2CC1C2(C)C` (stereo not drawn) [Alpha-pinene] the “7th day after spray (disease)” value was 14.25. `CCCCC[C@H](O)CC(=O)CCc1ccc(O)c(OC)c1` [Gingerol] was tested, and the “7th day after spray (disease)” value was 10.50. `C=CCc1ccc(OC)c(O)c1` [Chavibetol] was tested, and the “7th day after spray (disease)” value was 8.25. For `C=C1C2CCC(C2)C1(C)C` (stereo not drawn) [Camphene, camphene], the “7th day after spray (disease)” value was 13.50. With `CC1=CC(=O)C(C(C)C)=CC1=O` [Thymoquinone] the “7th day after spray (disease)” value was 9.25. For `CC12CCC(CC1)C(C)(C)O2` [1,8 cineole], the “7th day after spray (disease)” value was 13.25. For `C=CCc1ccc(O)c(OC)c1` [Eugenol], the “7th day after spray (disease)” value was 11.00. In the case of `Cc1ccc(C(C)C)c(O)c1` [Thymol], the “7th day after spray (disease)” value was 10.25. In the case of `C/C=C\c1cc(OC)c(OC)cc1OC` [β-Asarone], the “7th day after spray (disease)” value was 11.75. `CCCCCCCCCCCCCCCC(=O)O` [Palmitic acid] was tested, and the “7th day after spray (disease)” value was 8.75.

Same assay, conditions: in vivo
In the case of `CC(C)c1ccc(C=O)cc1` [Cuminaldehyde], the “5th day after spray (disease)” value was 12.25 and the “7th day after spray (disease)” value was 10.00. With `COc1cc(CNC(=O)CCCC/C=C/C(C)C)ccc1O` [Capsaicin] the “5th day after spray (disease)” value was 11.75 and the “7th day after spray (disease)” value was 7.50.

Same assay, conditions: pomegranate plants inoculated with Xanthomonas axanopodis pv. punicae; 5th day after spray; dose 1 ml/gm/lit
With Berberine the “5th day after spray (disease)” value was 12.25. In the case of Parthenin, the “5th day after spray (disease)” value was 14.25.

Same assay, conditions: pomegranate plants inoculated with Xanthomonas axanopodis pv. punicae; 7th day after spray; dose 1 ml/gm/lit
In the case of Berberine, the “7th day after spray (disease)” value was 9.50. With Parthenin the “7th day after spray (disease)” value was 12.75.

Same assay, conditions: pomegranate plants inoculated with Xanthomonas axanopodis pv. punicae; baseline before spray; dose 1 ml/gm/lit
For Berberine, the “Pre Spraying (disease)” value was 16.00. With Parthenin the “Pre Spraying (disease)” value was 15.25.
